Source: patent US10479794B2, “Cyclic ether derivatives of pyrazolo[1,5-a]pyrimidine-3-carboxyamide” (Boehringer Ingelheim International GmbH, priority 2015, dated 2019)

Test system: human MDR1 P-gp
Test: Assessment of efflux in MDCK cells transfected with the human MDR1 gene (MDCK assay)
Type: in vitro ADME, canine
Details: dog, MDCK-MDR1, pH 7.4, MDCK-MDR1; Papp (b-a) divided by Papp (a-b)
Protocol: Assessment of Efflux in Madin-Darby Canine Kidney Cells Transfected with the Human MDR1 Gene (MDCK Assay)
Apparent permeability coefficients (PE) of the compounds across the MDCK-MDR1 cell monolayers are measured (pH 7.4, 37° C.) in apical-to-basal (AB) and basal-to-apical (BA) transport direction. AB permeability (PEAB) represents drug absorption from the blood into the brain and BA permeability (PEBA) drug efflux from the brain back into the blood via both passive permeability as well as active transport mechanisms mediated by efflux and uptake transporters that are expressed on the MDCK-MDR1 cells, predominantly by the overexpressed human MDR1 P-gp. The compounds are assigned to permeability/absorption classes by comparison of the AB permeabilities with the AB permeabilities of reference compounds with known in vitro permeability and oral absorption in the human. Identical or similar permeabilities in both transport directions indicate passive permeation, vectorial permeability points to additional active transport mechanisms. Higher PEBA than PEAB indicates the involvement of active efflux mediated by MDR1 P-gp. […]
MDCK-MDR1 cells (1-2×10e5 cells/1 cm2 area) are seeded on filter inserts (Costar transwell polycarbonate or PET filters, 0.4 μm pore size) and cultured (DMEM) for 7 days. […] Efflux ratio is calculated dividing the Papp (b-a) values by the Papp (a-b) values.

Cc1nn2cc(C3CC3)cnc2c1C(=O)NC1(c2ccc(C(F)(F)F)nc2)CCOCC1O (racemic) [Example 51]
efflux ratio at 2 h: 5
